AlphaSeq binding of Ab-14 heavy chain variants to a spike HR2 peptide

Values reported by Engelhart et al. 2022, doi:10.1038/s41597-022-01779-4 (FLAb copy).

Target: peptide PDVDLGDISGINAS, taken from heptad repeat 2 (HR2) of SARS-CoV-2 spike.

Ab-14 is the parent antibody, in scFv form: VH, then a (GGGGS)3 linker, then VL. The light chain is unchanged in all variants.
VH: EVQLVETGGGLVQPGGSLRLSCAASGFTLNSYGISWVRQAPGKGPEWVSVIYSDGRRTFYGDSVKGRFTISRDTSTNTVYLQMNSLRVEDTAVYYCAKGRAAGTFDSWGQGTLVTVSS
VL: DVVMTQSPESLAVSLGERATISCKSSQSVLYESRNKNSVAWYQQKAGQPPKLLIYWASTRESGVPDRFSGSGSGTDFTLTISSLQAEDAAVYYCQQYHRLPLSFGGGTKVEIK

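The starting antibody came from a phage panning campaign against this peptide. AAYL49 was designed without a model: most single CDR substitutions and a random sample of double and triple ones. AlphaSeq pools MATa yeast showing the antibodies with MATalpha yeast showing the peptide. After mating in shaken culture at 30 °C for 16 h, diploids were selected and their barcode pairs sequenced. Each replicate has its own calibration line, from reference interactions of the BCL2 family. Mating was done three times.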

Changes read parent residue, position, new residue, counted from the first residue of the VH shown. Values are apparent Kd, the geometric mean of the replicates that gave a signal; lower means stronger binding. "nd" marks a missing value. The strain was present, yet no cells mated with the target were sequenced in any replicate, which points to weak or no binding.

changes	apparent Kd	detected
I34S+I51S+G99Y	33 µM	2 of 3
N30K+S31V+S107P	nd	0 of 3
V50E+I51T+T104S	1.7 µM	1 of 3
R57N+Y60I+D106K	1.1 µM	1 of 3
L29R+I34W+S107A	nd	0 of 3
T28A+G61T+S107E	8.6 µM	1 of 3
G26F+K65L+T104E	2.0 µM	2 of 3
N30Y+D54I+K65Y	nd	0 of 3
R57T+G61H	250 nM	3 of 3
V50T+F59K+S63N	nd	0 of 3
I34C+G61K+S63M	11 µM	2 of 3
V50Q+S63G+D106E	nd	0 of 3
Y60E+G99S+A102P	110 µM	2 of 3
Y60M+A101C	nd	0 of 3
S35V+Y60E	nd	0 of 3
V50F+R100M	nd	0 of 3
N30E+F59Q+K65R	12 nM	3 of 3
Y32L+R57G+G99T	nd	0 of 3
S63I+G99D	nd	0 of 3
G33D+I51S+S63G	220 µM	2 of 3
V50H+A102E+D106E	nd	0 of 3
A101H+A102R+G103V	nd	0 of 3
N30I+A102R+G103K	5.8 µM	3 of 3
S31D+V64A+G99D	nd	0 of 3
G33M+Y60S+A101E	nd	0 of 3
S53G+R56Y+Y60P	7.1 µM	2 of 3
G26Y+V50I+G61L	100 µM	3 of 3
I34T+F59G+T104H	nd	0 of 3
F27E+D54K+F59I	220 µM	1 of 3
V50W+Y52K+Y60S	190 µM	1 of 3
T28Q+S63V+G103N	nd	0 of 3
T28F+N30V+S35P	41 µM	2 of 3
I34W+Y52I+S53Q	nd	0 of 3
L29R+V50W+K65W	nd	0 of 3
T28I+V50P+S107T	520 µM	1 of 3
R56S+V64D+R100I	nd	0 of 3
I51D+Y52W+A102M	nd	0 of 3
S31V+I51T+F105E	250 µM	2 of 3
Y32E+S35V+F59R	20 µM	2 of 3
T28L+N30K+G61N	1.0 µM	3 of 3
V50R+S63Q+G103N	1.7 µM	1 of 3
T28R+T104E+S107W	nd	0 of 3
G26V+T28V	nd	0 of 3
F27R+I51D+D62H	nd	0 of 3
F59E+A101D	64 nM	3 of 3
V50I+F59L+S107K	nd	0 of 3
T28C+I34N+R100H	nd	0 of 3
G26V+S53N+D62H	nd	0 of 3
F27P+G103W+F105G	39 nM	3 of 3
Y32R+I34M+K65E	nd	0 of 3
Y32N+R57W+G61F	8.1 µM	2 of 3
I34D+F59M+G103H	84 µM	3 of 3
G33Y+G103A+D106P	52 µM	1 of 3
S35D+G55S+V64Y	11 µM	1 of 3
S53I+R57G+A102E	nd	0 of 3
R56G+F59I+K65G	nd	0 of 3
F27K+R100C+F105R	nd	0 of 3
L29W+A101N+T104G	1.0 mM	1 of 3
Y52T+R57P+G61P	5.8 µM	1 of 3
Y52H+G55P+A101N	nd	0 of 3
Y52L+S63P+A101L	nd	0 of 3
S35C+S53C+R56V	430 µM	1 of 3
G26D+Y52N+G61F	nd	0 of 3
G61D+G99Q+G103Q	410 nM	1 of 3
F27A+S35W+V64C	25 µM	1 of 3

As a blank, each scFv also met three strains without target: over library AAYL49, 15% of these pairings were detected, typically at 11 µM and seldom below 680 nM.